# The list is not random: actives were taken first. Their share in the collection is about 1.6%.
# UUG fidelity: modulators of start codon recognition fidelity in yeast; activity score, % at 18.7 µM; actives 0.13% (n = 350,000); S. cerevisiae UUG-firefly luciferase reporter, luminescence/redox ratio;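 active = replicate mean at a twofold rise or more, about +100% in these data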;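 note: firefly luciferase made from a UUG start codon reports start codon fidelity; reporter light over untreated wells divided by growth signal over untreated wells; some hits fall short of that in this replicate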
# CAL PDZ FP-1: blocks peptide binding to human CAL PDZ domain; AID 504414; Q9HD26; hit rate 0.02% among 330,000; purified CAL PDZ, TMR-peptide fluorescence polarization, 1 h; inhibition, % at 20 µM;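 active = highest replicate inhibition of at least 40%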;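 also: plate controls were DMSO neutral control wells for no effect and unlabeled competitor peptide control wells for full effect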
#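 material = purified tagged CAL PDZ domain construct (CerCALP) | compound dosing = 20 µM, one dose | times = 1 h at RT | measured by = fluorescence polarization from S- and P-plane intensities, G-factor corrected | read-out = inhibition from polarization loss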
# ARNT-TACC3 inh: ARNT/TACC3 interaction disruption; AlphaScreen His-ARNT PAS-B/GST-TACC3 binding, luminescence; TACC3 fragment carries E629A point mutation; inhibition, % at 9.99 µM; hit rate 0.66% among 390,000; AID 623870;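 active = mean inhibition of replicates at least 50% and at least half of replicates each reaching 50%; inconclusive = half or more replicates reach 50% but mean below 50%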;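 also: 0% = complete ARNT plus TACC3 wells and 100% = ARNT alone without TACC3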
# Vif inh: HIV Vif inhibition; HEK293T cells, Vif self-association by quenched fluorescence, imaging, 24 h; inhibition, % at 7.49 µM; hit rate 0.35% among 340,000; in the data active = inhibition above about 50%, passing the limit was not always enough; inconclusive = no clear call, values can overlap the other calls; inactive = below about 31%
# CAL PDZ FP-2: CAL PDZ (human) peptide binding inhibition; Q9HD26; purified CAL PDZ, TMR-peptide fluorescence polarization, 1 h; inhibition, % at 24.9 µM; hit rate 0.92% among 300,000; AID 602252;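 active = mean inhibition of at least 30% with at least half of replicates also reaching 30%; inconclusive = no clear call, values can overlap the other calls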;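 also: 0% = DMSO neutral control and 100% = excess unlabeled competitor peptide PRC23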
# PglD inh: PglD (C. jejuni) enzyme inhibition; purified PglD enzyme, DTNB colorimetric CoA detection; inhibition, % at 12.5 µM; hit rate 0.098% among 360,000; AID 602405; in the data active = inhibition above about 16%, passing the limit was not always enough; inconclusive = no clear call, values can overlap the other calls
# PglD inh SP: confirmation of Campylobacter jejuni PglD acetyltransferase inhibitors; Purified C. jejuni PglD, DTNB absorbance 412 nm; inhibition, % at 20 µM; shares compounds with PglD inh; 320 tested, under 10 active;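 active = mean inhibition across replicates of at least 20% with every single replicate also at 20% or more; inconclusive = mean inhibition at least 20% but some replicate falls below 20%; inactive = mean inhibition under 20% and not all replicates reach it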;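 also: initial rate of CoA release by acetyl transfer from AcCoA to the UDP-4-amino sugar; 0% = median of neutral control wells and 100% = median of positive control wells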
# ARNT Alpha ctr: counter-screen for ARNT/TACC3 inhibitors: AlphaScreen artifacts. shares compounds with ARNT-TACC3 inh. His-ARNT PASB-GST AlphaScreen artifact counter-screen, luminescence. AC50, µM (doses to about 68 µM), for inactives: top-dose activity change, negative = signal decrease. hit rate 50% among 1,200;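 active = every separate test run was called active for a drop in luminescence, with AC50 within twice the top valid dose, actives reach about 71 µM in these data; inconclusive = the separate test runs disagree in their calls; inactive = all runs inactive, including signal change in the wrong direction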
# The depositor's hits bear a star; ? = inconclusive; nt = no result; [ ] = another dose, or the depositor's remark.
SMILES,UUG fidelity,CAL PDZ FP-1,ARNT-TACC3 inh,Vif inh,CAL PDZ FP-2,PglD inh,ARNT Alpha ctr,others
Cc1ccc(CN2[C@@H]3c4ccccc4C[C@@H]3OCCS2(=O)=O)cc1,-8,-1,-4,-3,-7,2,nt,
CCN(CC)C(=O)c1ccccc1NC(=O)c1cccc(S(=O)(=O)N(CC)CC)c1,nt,0,-20,nt,-9,nt,nt,
CCN(CC)C(=O)c1ccccc1NC(=O)c1ccccc1,2,-9,-1,9,1,29*,nt,PglD inh SP=0
CN(C(=O)c1ccc(NC(=O)Cc2cccc(NC(=O)C3CCN(C(=O)C4CC4)CC3)c2)cc1)C1CC1,15,-2,-7,1,-1,25*,nt,PglD inh SP=-1
O=C(CCCOc1ccccc1)Nc1cccc(S(=O)(=O)N2CCOCC2)c1,-6,-2,-2,-1,-4,21*,nt,PglD inh SP=-4
CC(=O)c1ccc(OCCCC(=O)Nc2cccc(S(=O)(=O)N3CCOCC3)c2)cc1,-17,-1,-4,-8,-2,-7,nt,
COc1ccccc1S(=O)(=O)N[C@@H]1CC[C@@H](CCNC(=O)C2CCCC2)O[C@H]1CO,-12,nt,-3,nt,nt,-1,nt,
CC(C(=O)Nc1ccc(Cl)cc1)N(C)Cc1cccs1 (stereo not drawn),-9,-3,-2,-9,nt,23*,nt,PglD inh SP=-8
CC1=CC(=NOC(=O)/C=C/c2ccccc2)C=C(C)C1=O,-10,-1,0,1,-2,28*,nt,PglD inh SP=-1
Cc1ccc(C(=O)Nc2cccc(C(=O)N/N=C/c3ccc(O)cc3)c2)cc1,-18,-2,31*,-9,nt,8,-30%,
C[C@H]1CN([C@@H](C)CO)C(=O)c2cccc(NS(=O)(=O)c3ccc(F)cc3)c2O[C@H]1CN(C)C,4,nt,-9,nt,nt,-2,nt,
CCOC(=O)N1CCN(C(=O)CSc2ccc3nnc(-c4ccccn4)n3n2)CC1,-18,1,42*,4,-4,3,2%,

# The final five records of the part before are carried over, then new ones follow.
SMILES,UUG fidelity,CAL PDZ FP-1,ARNT-TACC3 inh,Vif inh,CAL PDZ FP-2,PglD inh,ARNT Alpha ctr,others
CC(C(=O)Nc1ccc(Cl)cc1)N(C)Cc1cccs1 (stereo not drawn),-9,-3,-2,-9,nt,23*,nt,PglD inh SP=-8
CC1=CC(=NOC(=O)/C=C/c2ccccc2)C=C(C)C1=O,-10,-1,0,1,-2,28*,nt,PglD inh SP=-1
Cc1ccc(C(=O)Nc2cccc(C(=O)N/N=C/c3ccc(O)cc3)c2)cc1,-18,-2,31*,-9,nt,8,-30%,
C[C@H]1CN([C@@H](C)CO)C(=O)c2cccc(NS(=O)(=O)c3ccc(F)cc3)c2O[C@H]1CN(C)C,4,nt,-9,nt,nt,-2,nt,
CCOC(=O)N1CCN(C(=O)CSc2ccc3nnc(-c4ccccn4)n3n2)CC1,-18,1,42*,4,-4,3,2%,
O=C(CSc1nnc(-c2ccccn2)o1)Nc1ccccc1F,-21,-3,59*,21,-3,-1,-10%,
O=C(CSc1nnc(-c2ccccn2)o1)Nc1cccc(Cl)c1,-13,0,1,2,-1,4,nt,
O=C(CSc1ccc2nnc(-c3ccccn3)n2n1)Nc1ccccc1F,-19,-2,53*,-2,-2,0,-34%,
O=C(CSc1ccc2nnc(-c3ccccn3)n2n1)NCC1CCCO1 (stereo not drawn),2,-1,56*,8,nt,-1,-16%,
CCOC(=O)N1CCN(C(=O)CSc2ccc3nnc(-c4ccncc4)n3n2)CC1,-22,-1,8,?,0,0,nt,
O=C(CSc1ccc2nnc(-c3ccccn3)n2n1)Nc1cccc(F)c1,-22,0,40,-1,-2,0,nt,
C[C@@H]1CN([C@H](C)CO)C(=O)c2cc(C3=CCCCC3)cnc2O[C@@H]1CN(C)Cc1ccccn1,-18,nt,4,nt,nt,2,nt,
C[C@H]1CN([C@@H](C)CO)C(=O)c2cc(C#Cc3ccc(F)cc3)cnc2O[C@H]1CN(C)C(=O)Nc1ccc(F)cc1,-7,nt,2,nt,nt,3,nt,
CCOc1ccc(NC(=O)CC(NCc2ccccn2)C(=O)O)cc1 (stereo not drawn),nt,0,65*,9,-2,nt,6.1µM*,
O=c1[nH]c2ccccc2c(O)c1SCCO,nt,-3,nt,4,0,nt,nt,
O=C(O)CSc1c(O)c2ccccc2[nH]c1=O,nt,-1,60*,-6,2,nt,-10%,
Cc1ccc(C2CCN(C(=S)Nc3cccc(C)c3)C2)cc1 (stereo not drawn),nt,0,58*,4,12,nt,-12%,
C[C@H](CO)N1C[C@H](C)[C@H](CN(C)S(=O)(=O)c2ccc(Cl)cc2)Oc2c(NC(=O)Nc3cccc4ccccc34)cccc2C1=O,-20,nt,-11,nt,nt,-1,nt,
COc1ccc(NC(=O)Nc2ccc3c(c2)CC(=O)N([C@@H](C)CO)C[C@@H](C)[C@H](CN(C)Cc2ccc(Oc4ccccc4)cc2)O3)cc1,15,nt,58*,nt,nt,-1,20µM*,
C[C@@H]1CN([C@@H](C)CO)C(=O)c2cc(NC(=O)Nc3cccc4ccccc34)ccc2O[C@@H]1CN(C)C(=O)Nc1ccc(C(F)(F)F)cc1,-13,nt,-1,nt,nt,-1,nt,
C[C@H]1CN([C@@H](C)CO)C(=O)c2cc(NC(=O)Nc3cccc4ccccc34)ccc2O[C@@H]1CN(C)C(=O)Nc1ccc(C(F)(F)F)cc1,16,nt,active,nt,nt,5,-31%[42 µM],
COc1ccc(CN(C)C[C@@H]2Oc3ccc(NC(=O)Cn4cnnn4)cc3C(=O)N([C@@H](C)CO)C[C@H]2C)cc1,nt,nt,54*,nt,nt,-4,-4%[42 µM],
COc1ccc(CN(C)C[C@H]2Oc3ccc(NC(=O)Cn4cnnn4)cc3C(=O)N([C@H](C)CO)C[C@@H]2C)cc1,nt,nt,24,nt,nt,-2,nt,
C[C@H]1CN([C@@H](C)CO)C(=O)c2cccc(NC(=O)Nc3cccc4ccccc34)c2O[C@@H]1CN(C)S(=O)(=O)c1ccc(Cl)cc1,-10,nt,53*,nt,nt,0,25µM*,
C[C@H]1CN([C@@H](C)CO)C(=O)c2cccc(NC(=O)Nc3ccc(F)cc3)c2O[C@H]1CN(C)S(=O)(=O)c1ccccc1,16,nt,-4,nt,nt,7,nt,
C[C@H]1CN([C@@H](C)CO)C(=O)Cc2cc(NC(=O)Nc3cccc4ccccc34)ccc2O[C@H]1CN(C)CC1CCCCC1,9,nt,52*,nt,nt,3,-31%[42 µM],
C[C@H](CO)N1C[C@H](C)[C@H](CN(C)Cc2ccc(Oc3ccccc3)cc2)Oc2ccc(NC(=O)Nc3cccc4ccccc34)cc2CC1=O,-9,0,-3,-2,0,6,nt,
C[C@H]1CN([C@@H](C)CO)C(=O)Cc2cc(NC(=O)Nc3cccc4ccccc34)ccc2O[C@@H]1CN(C)Cc1ccc(Oc2ccccc2)cc1,-11,nt,61*,nt,nt,-3,34µM*,
C[C@H](CO)N1C[C@H](C)[C@@H](CN(C)C(=O)Nc2ccc3c(c2)OCO3)Oc2ccc(NC(=O)CCN3CCOCC3)cc2CC1=O,4,nt,50*,nt,nt,-3,-14%[42 µM],
CC(C)NC(=O)N1C[C@H]2[C@@H](c3ccccc31)[C@@H](CO)N2C(=O)c1ccccc1F,3,nt,1,nt,nt,-2,nt,
O=C(O)C[C@@H]1C[C@H]2c3cc(NC(=O)Nc4ccc(C(F)(F)F)cc4)ccc3O[C@H]2[C@H](CO)O1,nt,nt,5,nt,nt,3,nt,
Cc1noc(C)c1NC(=O)Nc1ccc2c(c1)C(=O)N([C@H](C)CO)C[C@H](C)[C@H](CN(C)C(=O)Nc1ccccc1)OCCCC[C@@H](C)O2,11,nt,-7,nt,nt,0,nt,
